This is a selection; strong and weak results do not stand in their true shares. Some structures show a salt or complex split into parts, the way the source records it. Calls of active or inactive are those of the source.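 Rule for the calls: active = mean activation of at least 80% with every replicate also reaching 80%; inconclusive = mean reaches 80% but some replicate falls short; inactive = the rest.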
Assay: MITF-driven TRPM1 luciferase induction in melanoma cells – cell-based, SK-MEL-5, single point, primary screen (AID 588334);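 note: 0% = neutral control wells and 100% = parthenolide positive control wells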
Conditions: SK-MEL-5 TRPM1-promoter luciferase, 24 h; at 12.5 µM; hits give high values; % of positive control, neutral wells = 0

Row | Structure (SMILES) | activation
1 | COc1ccccc1OP(C)(=O)Nc1cc(Cl)ccc1C (stereo not drawn) | inactive: -0.964%
2 | Cc1cc(C)cc(OP(C)(N)=O)c1 (stereo not drawn) | inactive: 1.04%
3 | CCOC(=O)c1ccc(NP(C)(=O)Oc2ccccc2)cc1 (stereo not drawn) | inactive: -6.16%
4 | COc1ccccc1OP(C)(=O)Nc1ccc(C)cc1 (stereo not drawn) | inactive: -14%
5 | Cc1ccc(NP(C)(=O)Oc2ccccc2)c(C)c1 (stereo not drawn) | inactive: -5.2%
6 | CC(C)(C)c1ccc(OP(C)(=O)Nc2ccc(SC(F)(F)F)cc2)cc1 (stereo not drawn) | inactive: -8.49%
7 | Cc1cccc(C)c1OP(C)(N)=O (stereo not drawn) | inactive: 0.443%
8 | O=[N+]([O-])c1ccc2c(c1)C=Nc1ccccc1O2 | inactive: -11.2%
9 | O=[N+]([O-])c1cc([N+](=O)[O-])c(Nc2cccnc2)c([N+](=O)[O-])c1 | inactive: 0.718%
10 | CCN(CC)CCCOC(=O)C(O)(c1ccccc1)c1ccccc1 | inactive: -8.15%
11 | CP(=O)(Nc1ccccn1)Oc1ccc(Cl)cc1 (stereo not drawn) | inactive: 4.45%
12 | CCOP(C)(=S)SCC(=O)NC(C)C(=O)O (stereo not drawn) | inactive: -3%
13 | CCOC(=O)c1ccc(NP(C)(=O)Oc2ccc(OC)cc2)cc1 (stereo not drawn) | inactive: 6.65%
14 | CP(=O)(NC(=O)Nc1ccccc1)Oc1ccccc1 (stereo not drawn) | inactive: -2.8%
15 | Cc1cc(C)cc(OP(C)(=O)Nc2ccc(SC(F)(F)F)cc2)c1 (stereo not drawn) | inactive: 0.373%
16 | Cc1cccc(C)c1OP(C)(=O)Nc1ccc(SC(F)(F)F)cc1 (stereo not drawn) | inactive: 17.1%
17 | CP(=O)(Oc1ccccc1)OC(c1ccccc1)C(F)(F)F (stereo not drawn) | inactive: -9.15%
18 | COc1ccccc1OP(C)(=O)Nc1ccccc1 (stereo not drawn) | inactive: 19.8%
19 | CP(=O)(Nc1ccccc1Br)Oc1ccccc1 (stereo not drawn) | inactive: -2.34%
20 | CP(=S)(Nn1cnnc1)Oc1ccccc1 (stereo not drawn) | inactive: -5.34%
21 | CP(=O)(Nc1ccc(SC(F)(F)F)cc1)Oc1ccccc1 (stereo not drawn) | inactive: 9.16%
22 | CCCOc1ccc(NP(C)(=O)Oc2ccc(Cl)cc2)cc1 (stereo not drawn) | inactive: 0.0185%
23 | CN1CCCCC1COC(=O)C1(O)c2ccccc2CCc2ccccc21 (stereo not drawn) | inactive: -3.61%
24 | O=[N+]([O-])c1cc([N+](=O)[O-])c(Nc2nnnn2CCO)c([N+](=O)[O-])c1 | inactive: 4.9%
25 | CC1=C2N=C(C=C3N=C(C(C)=C4[N-][C@@](C)([C@@H]5N=C1[C@](C)(CCC(=O)NC[C@@H](C)OP(=O)([O-])O[C@H]1[C@@H](O)[C@@H](n6cnc7cc(C)c(C)cc76)O[C@@H]1CO)[C@H]5CC(N)=O)[C@@](C)(CC(N)=O)[C@@H]4CCC(N)=O)[C@@](C)(CC(N)=O)[C@@H]3CCC(N)=O)C(C)(C)[C@@H]2CCC(N)=O.[C-]#N.[Co+3] | inactive: -5.78%
26 | CCOC(=O)C(CC)C1=NC(C)(C)Cc2ccccc21.O=[N+]([O-])c1cc([N+](=O)[O-])c(O)c([N+](=O)[O-])c1 (stereo not drawn) | inactive: -4.69%

Row | Structure (SMILES) | activation
27 | Cc1nc2ccc3ccccc3c2s1.O=[N+]([O-])c1cc([N+](=O)[O-])c(O)c([N+](=O)[O-])c1 | inactive: 4.76%
28 | O=[N+]([O-])c1cc([N+](=O)[O-])c(-n2nnc3ccccc32)c([N+](=O)[O-])c1 | inactive: -0.633%
29 | CP(=O)(Nc1cccc(Br)c1)Oc1ccccc1 (stereo not drawn) | inactive: -2.11%
30 | Cc1cc(C)cc(OP(C)(=O)Nc2ccccn2)c1 (stereo not drawn) | inactive: 1.86%
31 | Cc1ccc(C)c(NP(C)(=O)Oc2ccccc2)c1 (stereo not drawn) | inactive: 7.56%
32 | Cc1cc(C)cc(OP(C)(=O)Nc2ccc(C)cc2C)c1 (stereo not drawn) | inactive: 2.4%
33 | CCOC(=O)c1ccc(NP(C)(=O)Oc2cc(C)cc(C)c2)cc1 (stereo not drawn) | inactive: -5.43%
34 | COc1ccccc1OP(C)(=O)Nc1cccc(Br)c1 (stereo not drawn) | inactive: -1.37%
35 | CC1=NCCc2c1[nH]c1ccccc21.O=[N+]([O-])c1cc([N+](=O)[O-])c(O)c([N+](=O)[O-])c1 | inactive: -2.96%
36 | O=C(O)c1cccc(Nc2c([N+](=O)[O-])cc([N+](=O)[O-])cc2[N+](=O)[O-])c1 | inactive: -7.18%
37 | CP(=O)(Nc1ccccc1)Oc1ccc(F)cc1 (stereo not drawn) | inactive: -1.51%
38 | CCN(CC)CCCOC(=O)C(O)(c1ccccc1)C1CCCCC1 (stereo not drawn) | inactive: 12.7%
39 | Cc1c([N+](=O)[O-])cc([N+](=O)[O-])c(Br)c1[N+](=O)[O-] | inactive: -1.47%
40 | COc1ccc(OP(C)(=O)Nc2ccc(SC(F)(F)F)cc2)cc1 (stereo not drawn) | inactive: -2.71%
41 | CCOC(=O)c1ccc(NP(C)(=O)Oc2ccc(F)cc2)cc1 (stereo not drawn) | inactive: 8.03%
42 | COc1ccc2c(c1O)-c1c(O)c(OC)cc3c1[C@H](C2)[N+](C)(C)CC3.O=[N+]([O-])c1cc([N+](=O)[O-])c([O-])c([N+](=O)[O-])c1[O-] | inactive: -17.1%
43 | O=C(OCCN1CCN(CCOCc2ccccc2)CC1)C(O)(c1ccccc1)c1ccccc1 | inactive: -5.04%
44 | CC(C)c1ccc(OP(C)(=O)Nc2ccc(SC(F)(F)F)cc2)cc1 (stereo not drawn) | inactive: 0.948%
45 | CP(=O)(Nc1ccccc1F)Oc1ccccc1 (stereo not drawn) | inactive: 2.89%
46 | CP(=O)(Nc1ccc2c(c1)OCCO2)Oc1ccccc1 (stereo not drawn) | inactive: -46%
47 | CCOP(C)(=S)SCC(=O)NC(C)(CC)C(=O)O (stereo not drawn) | inactive: 2.61%
48 | Cc1c(C(c2ccc3c(c2)OCO3)c2c(C)n(C)n(-c3ccccc3)c2=O)c(=O)n(-c2ccccc2)n1C.O=[N+]([O-])c1cc([N+](=O)[O-])c(O)c([N+](=O)[O-])c1 | inactive: 9.28%
49 | Cc1cc(-c2cccc3ccccc23)c(C)cn1.O=[N+]([O-])c1cc([N+](=O)[O-])c(O)c([N+](=O)[O-])c1 | inactive: -3.97%
50 | O=[N+]([O-])c1cc([N+](=O)[O-])c(NCC2CCS(=O)(=O)C2)c([N+](=O)[O-])c1 (stereo not drawn) | inactive: -43.8%
51 | O=[N+]([O-])c1ccc(OP2(=O)COCCO2)cc1 (stereo not drawn) | inactive: -4.85%
52 | COc1ccc(NP(C)(=O)Oc2ccccc2OC)cc1 (stereo not drawn) | inactive: -19.4%

Row | Structure (SMILES) | activation
53 | CN(C)CCOC(=O)C(O)(c1ccccc1)C1CCCCC1 (stereo not drawn) | inactive: 10.5%
54 | CP(=O)(OC12CC3CC(CC(C3)C1)C2)OC12CC3CC(CC(C3)C1)C2 | inactive: -6.09%
55 | CCOC(=O)c1ccc(NP(C)(=O)Oc2ccc(Cl)cc2)cc1 (stereo not drawn) | inactive: -1.24%
56 | CN(C)C(=O)c1c([N+](=O)[O-])cc([N+](=O)[O-])cc1[N+](=O)[O-] | inactive: -42.7%
57 | CP(=O)(Nc1ccc(Cl)cc1)Oc1ccc(F)cc1 (stereo not drawn) | inactive: 0.874%
58 | CC(C)(C)c1ccc(OP(C)(=O)O)cc1 | inactive: -6.63%
59 | COc1ccccc1OP(C)(=O)Nc1ccccc1Br (stereo not drawn) | inactive: -6.06%
60 | CP(=O)(Oc1ccccc1)N1CCOC1=O (stereo not drawn) | inactive: -3.37%
61 | CCc1ccc(OP(C)(=O)Nc2cccnc2)cc1 (stereo not drawn) | inactive: -3.03%
62 | COc1ccccc1OP(C)(=O)Nc1c(C)n(C)n(-c2ccccc2)c1=O (stereo not drawn) | inactive: 15.6%
63 | O=C(OCCCN1CCCC1)C(O)(c1ccccc1)C1CCCCC1 (stereo not drawn) | inactive: 12.6%
64 | CCN(CC)CC(O)COC(=O)C(O)(c1ccccc1)C1CCCCC1 (stereo not drawn) | inactive: 2.42%
65 | COc1ccc(OP(C)(=O)Nc2ccc(Br)cc2)cc1 (stereo not drawn) | inactive: 11.3%
66 | CCc1ccc(OP(C)(=O)O)cc1 | inactive: 1.2%
67 | CP(=O)(Nc1ccccn1)Oc1ccccc1 (stereo not drawn) | inactive: 0.281%
68 | O=[N+]([O-])c1cc([N+](=O)[O-])c(Nc2ccccn2)c([N+](=O)[O-])c1 | inactive: -84.3%
69 | CN(C)CCOC(=O)C(O)(c1ccccc1)C1CCCC1 (stereo not drawn) | inactive: -3.12%
70 | COc1ccc(OP(C)(=O)Nc2ccccn2)cc1 (stereo not drawn) | inactive: -4.62%
71 | COc1ccccc1OP(C)(=O)Nc1ccc(Br)cc1 (stereo not drawn) | inactive: -11.9%
72 | CP(=O)(OCCOc1ccccc1)OCCOc1ccccc1 | inactive: 0.319%
73 | CP(=O)(Nc1ccc(Cl)cc1Cl)Oc1ccccc1 (stereo not drawn) | inactive: -0.864%
74 | CCCCCCCCCCCCCCCC1C[N+](C)(C)CCOP(C)(=O)O1 (stereo not drawn) | inactive: -9.85%
75 | COc1ccc(OP(C)(=O)Nc2ccccc2Br)cc1 (stereo not drawn) | inactive: 4.26%
76 | COc1ccccc1OP(C)(=O)Nc1ccc(C)c(C)c1 (stereo not drawn) | inactive: -8.37%
77 | O=C1C(O)=C([N+](=O)[O-])C(=O)C(O)=C1[N+](=O)[O-] | inactive: 3.09%
78 | Cc1cc(C)cc(OP(C)(=O)Nc2cccc(C(F)(F)F)c2)c1 (stereo not drawn) | inactive: 6.32%
